# OPERA 2.9 data: water solubility values

Data: OPERA 2.9 data sets, kmansouri/OPERA on GitHub.

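These are experimental values that the OPERA curators gathered from public databases to train and test their QSAR models. One number stands for a compound and property, with no spread given. Conditions of the individual experiments are not part of the data. A value may pool stereoisomers or salt forms, and the file does not say which form was measured. Unmarked limits or estimates from the upstream databases cannot be ruled out.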

Solubility in water is on a log10 molar scale (set defined at 25 °C).

compound,water solubility (log10 mol/L)
Cc1ccc(S(=O)(=O)Oc2ccc(Nc3cc(S(=O)(=O)[O-])c(N)c4c3C(=O)c3ccccc3C4=O)cc2)cc1.[Na+],-2.622
COc1cc(NC(=O)C(N=Nc2cc(OC)c(S(=O)(=O)Nc3ccccc3)cc2OC)C(C)=O)c(OC)cc1Cl (configuration not stated),-7.965
CCN(CC)c1ccc(N=Nc2ccc([N+](=O)[O-])cc2)cc1,-10.4
CN1CCC[C@@H]1Cc1c[nH]c2ccc(CCS(=O)(=O)c3ccccc3)cc12,-5.511
CCOC(N)=O,0.85
COC(=O)c1ccccc1OS(=O)(=O)c1ccc(C)cc1,-3.597
NS(=O)(=O)Cc1noc2ccccc12,-2.007
CC=CC(C)(O)CCC=C(C)C (configuration not stated),-2.402
C/C=C/C=C/C(=O)OCCC[Si](OC)(OC)OC,-2.793
CC(=O)Nc1ccc(Nc2ccc(O)c3c2C(=O)c2ccccc2C3=O)cc1,-6.249
CC(CCC(COC(=O)CC(O)C(=O)OCC(CCC(C)CC(C)(C)C)C(C)CC(C)(C)C)C(C)CC(C)(C)C)CC(C)(C)C (configuration not stated),-6.124
O=C(c1ccccc1)c1ccc(O)c(O)c1O,-3.345
CCN(CC)C(=S)SSC(=S)N(CC)CC,-3.928
N=C(N)NCC1COC2(CCCCC2)O1 (configuration not stated),-2.043
C/C=C/C(=O)OC(CC)C(C)C (stereo partly drawn),-3.174
CCCCC(CC)COCCCNC(=O)Nc1cccc2c(NC(=O)NCCCOCC(CC)CCCC)cccc12 (configuration not stated),-8.068
O[C@H](c1ccccc1)c1ccc(Br)cc1,-4.379
CSCC[C@H](NC(=O)[C@H](Cc1c[nH]c2ccccc12)NC(=O)CCNC(=O)OC(C)(C)C)C(=O)N[C@@H](CC(=O)O)C(=O)N[C@@H](Cc1ccccc1)C(N)=O,-5.395
CCn1c2ccccc2c2c3c(ccc21)N=c1c(Cl)c2c(c(Cl)c1O3)=Nc1ccc3c(c1O2)c1ccccc1n3CC,-7.373
NC(=O)CC1(CC(=O)O)CCCCC1,-1.871
O=C1C2=C(O)CCC(O)=C2C(=O)c2ccccc21,-5.509
Cc1ccc(OCC(=O)N(Cc2cccs2)c2cc[nH]n2)cc1,-4.395
Cc1noc(C)c1NS(=O)(=O)c1ccc(N)cc1,-3.184
C=CC(C)(O)CCCC(C)CCCC(C)CCCC(C)C (configuration not stated),-4.709
O=C(O)c1cc(-n2nc3ccccc3n2)ccc1O,-3.009
C=S(=C)(C)O[C@@H]1CC(C(=O)OCC)=C[C@H]2OC(C)(C)O[C@H]21,-3.053
CC1=CCCC2(C)C(OC=O)C(C)CCC12C (configuration not stated),-5.031
CC#C[C@]1(O)CC[C@H]2[C@@H]3CCC4=CC(=O)CCC4=C3[C@@H](c3ccc(N(C)C)cc3)C[C@@]21C,-5.9
O=c1c2ccccc2nc2n1CC[C@@H]2O,-2.09
CCCCCCCCCCCCCCCC(=O)OCCCCCCCCCCCCCCCC(C)C,-7.008
CCCCCC/C=C/C(=O)OC,-3.668
CC1(C)NC(=O)N(c2ccc([N+](=O)[O-])c(C(F)(F)F)c2)C1=O,-4.879
CCC(=O)OCC(C)(C)OC(C)C1CCCC(C)(C)C1 (configuration not stated),-4.787
N[C@@H](CSSc1ccccc1)C(=O)O,-2.661
NCC(=O)NCC(=O)NCC(=O)NCC(=O)NCC(=O)NCC(=O)O,-2.858
CCCCCCCCCCCC(=O)OCCC(C)C,-6.733
CCOC(=O)C(CCc1ccccc1)NC1CCCN2CCCC(C(=O)O)N2C1=O.O (configuration not stated),-2.614
CCOC(C)OCCc1ccccc1 (configuration not stated),-2.632
CC(c1ncncc1F)C(O)(Cn1cncn1)c1ccc(F)cc1F.CC1(C)C2CCC1(CS(=O)(=O)O)C(=O)C2 (configuration not stated),-2.367
Cc1cc(Cc2cc(C)cc(C3(C)CCCCC3)c2O)c(O)c(C2(C)CCCCC2)c1,-8.147
O=Cc1cc(I)cc(I)c1O,-4.096
CCCCC(CC)CNS(=O)(=O)c1ccc(N=Nc2c(C)c(C#N)c(=O)n(CCCC)c2O)cc1 (configuration not stated),-8.797
Clc1ccc(Oc2c(Cl)c(Cl)cc(Cl)c2Cl)cc1Cl,-8.3
CCOC(=O)C(C#N)=C(c1ccccc1)c1ccccc1,-7.744
FC(F)(F)C(F)(F)C(F)(F)F,-4.518
Nc1cnc2cncnc2n1,-2.314
Clc1ccc(Cl)c(Oc2ccc(Cl)c(Cl)c2Cl)c1,-7.7
O=[N+]([O-])c1ccc(Nc2ccccc2)c([N+](=O)[O-])c1,-3.834
CCCCC[C@@H]1CCC[C@@H]1O (relative stereo),-2.872
Cc1cc2c(cn1)Cc1cccc(C)c1-2,-1.575

Extract of 4 entries:

| compound | water solubility (log10 mol/L) |
|---|---|
| O=Cc1cc(I)cc(I)c1O | -4.096 |
| CC(=O)Nc1ccc(Nc2ccc(O)c3c2C(=O)c2ccccc2C3=O)cc1 | -6.249 |
| CC(c1ncncc1F)C(O)(Cn1cncn1)c1ccc(F)cc1F.CC1(C)C2CCC1(CS(=O)(=O)O)C(=O)C2 (configuration not stated) | -2.367 |
| Clc1ccc(Cl)c(Oc2ccc(Cl)c(Cl)c2Cl)c1 | -7.7 |